Calls of active or inactive are those of the source. The calls are words filed in the database; no cut-off is given here.
Test system: NCI-H446
Assay: Inhibition of PI3K/AKT signaling pathway in human NCI-H446 cells assessed as decrease in p-AKT level at 10 uM incubated for 48 hrs by Western blot analysis
Assay type: cell-based

| Compound | inhibition |
| --- | --- |
| Cc1nc(NC(=O)N2CCC[C@H]2C(N)=O)sc1-c1ccnc(C(C)(C)C(F)(F)F)c1 [ALPELISIB] | Active |
| CC(=O)/N=c1/[nH]c(C)c(-c2ccc(Cl)c(S(=O)(=O)NCCO)c2)s1 | Active |
